Source: patent US20100249123A1, “NOVEL BENZAMIDE DERIVATIVES AS MODULATORS OF THE FOLLICLE STIMULATING HORMONE” (ADDEX PHARMA SA, priority 2007, published 2010)

Chains of the proteins cited; added tags and fusions are not shown. Residues count along the entry.
UniProt P20395, 18-692 limits assumed: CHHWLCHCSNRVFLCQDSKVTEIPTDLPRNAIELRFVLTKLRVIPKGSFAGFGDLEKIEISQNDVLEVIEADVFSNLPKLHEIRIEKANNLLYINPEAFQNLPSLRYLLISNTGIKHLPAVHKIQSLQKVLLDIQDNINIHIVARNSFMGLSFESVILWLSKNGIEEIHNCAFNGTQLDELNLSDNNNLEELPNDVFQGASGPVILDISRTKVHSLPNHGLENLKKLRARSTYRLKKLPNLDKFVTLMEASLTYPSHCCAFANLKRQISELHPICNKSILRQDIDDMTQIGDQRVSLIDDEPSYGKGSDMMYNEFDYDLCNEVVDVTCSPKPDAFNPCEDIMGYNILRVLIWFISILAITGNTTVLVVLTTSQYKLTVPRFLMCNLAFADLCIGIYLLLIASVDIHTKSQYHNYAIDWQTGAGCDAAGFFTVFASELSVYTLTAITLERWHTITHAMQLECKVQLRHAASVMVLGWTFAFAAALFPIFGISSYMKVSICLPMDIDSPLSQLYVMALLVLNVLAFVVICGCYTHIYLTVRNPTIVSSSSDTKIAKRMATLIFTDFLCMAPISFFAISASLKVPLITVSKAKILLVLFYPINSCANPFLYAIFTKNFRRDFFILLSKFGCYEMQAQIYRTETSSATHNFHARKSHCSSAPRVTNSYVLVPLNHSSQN

Each compound was assayed against rat follicle stimulating hormone receptor (rFSHR) (Rattus norvegicus, UniProt P20395) (assay: Intracellular cAMP measurement (HTRF) assay, antagonism of EC70 of hFSH). Details: read-out: Class (IC50 to antagonise an EC70 of FSH receptors agonist such as hFSH), HEK293 cells expressing rFSHR, 1 ng/ml hFSH (EC70).
Excerpt: Intracellular cAMP Measurement Assay
The Intracellular cAMP measurement assay is a functional cell-based assay used to study GPCR function. This method relies on a Time-Resolved Fluorescence (HTRF) assay to measure the cAMP accumulation upon receptor-mediated Gs protein activation in cells expressing recombinant GPCR or in cells from native tissues. In brief, this method is a competitive immunoassay between native cAMP produced by cells and the cAMP labeled with a fluorescent tag. The endogenously produced cAMP competes with exogenous added d2-labelled cAMP for the cAMP binding site on a Eu3+ cryptate labelled anti-cAMP antibody. The d2-labelled cAMP and the Eu^3+ labelled antibody produces a basal fluroresence via HTRF and therefore an intracellular increase in unlabelled cAMP is detected as decrease in this signal. cAMP is one of the most important intracellular mediators. Its concentration in cells can be increased upon binding of many hormones to their receptors. The most studied pathway consists in the release of α-subunit GTP-binding proteins following ligand-receptor interaction, which in turn activates or inhibits the ATP/cAMP conversion function of adenylate cyclase enzyme. cAMP is then involved in many complex regulatory processes such as protein kinase activation or ion channel gating. This method is widely used to study receptor activation of G protein in cells over-expressing GPCRs or in native cells, including FSH receptors expressing cells (Gabriel et al., Assay Drug Dev. Technol., 1, 291-303, 2003).
Transfection and cell culture: The cDNA encoding the rat follicle stimulating hormone receptor (rFSHR), (accession number NM_199237, NCBI Nucleotide database browser) was subcloned into an expression vector containing also the hygromycin resistance gene. Transfection of this vector into HEK293 cells with PolyFect reagent (Qiagen) according to supplier's protocol, and hygromycin treatment allowed selection of antibiotic resistant cells which had integrated stably one or more copies of the plasmid. Positive cellular clones expressing rFSHR were identified in a functional assay measuring cAMP production in cells following stimulation by addition of purified human follicle stimulating hormone (hFSH).
HTRF cAMP assay: On the day of the experiment, cells were detached from the Petri dish and distributed in a low volume, black-walled 384-well plate at a density of 5,000 cells/well in an assay buffer containing 1 mM IBMX to prevent cAMP degradation by cytoplasmic phosphodiesterases. The determination of the cAMP accumulation was performed using an HTRF assay (Trinquet et al., Anal. Biochem., 358, 126-135, 2006). Briefly, cells were incubated for 3 min in the presence of increasing concentrations of negative allosteric modulators (from 1 nM to 60 μM) and then 30 min in the presence of 1 ng/ml of hFSH, an agonist of rat FSH receptor, that has been determined in previous experiments to correspond to the EC70, a concentration that gives 70% of the maximal response of the agonist, and is in accordance with published data (Fox et al., Mol. Endocrin., 15, 378-389, 2001). […] Cells were then lysed by adding the HTRF assay components, the europium cryptate-labeled anti-cAMP antibody, and the XL665-labeled cAMP analog, previously diluted in a HEPES buffer (50 mM, pH 7.0) containing 0.8 M potassium fluoride, 0.2% (w/v) BSA, and 1% (v/v) Triton X-100, a percentage of detergent that ensure complete cell lysis. Assay was then incubated for 1 hr at room temperature, and HTRF signal was measured after excitation at 337 nm, and dual emission at 620 and 665 nm, using a RubyStar fluorimeter (BMG Labtechnologies). Moreover, the fluorescence ratio of an appropriate range of known concentrations of cAMP standards was also included on each assay plate to produce a standard cAMP curve. […]

Row | Structure (SMILES) | pIC50
1 | COc1ccc(C(=O)Nc2ccc(C(C)(C)CNC(=O)Cn3ccc4cc(F)ccc43)cc2)cc1OC | > 6.82
2 | COc1ccc(C(=O)Nc2ccc(C(C)(C)CNC(=O)c3cnc4[nH]cnc4c3)cc2)cc1OC | < 6.00
3 | COc1ccc(C(=O)Nc2ccc(C(C)(C)CNC(=O)c3c[nH]c4cnc(Cl)cc34)cc2)cc1OC | 6.40 to 6.82
4 | COc1ccc(C(=O)Nc2ccc(C(C)(C)CNC(=O)c3nc4cccnc4[nH]3)cc2)cc1OC | 6.00 to 6.40

More lines, now with the values ahead:

Row | pIC50 | Structure (SMILES)
5 | > 6.82 | COc1ccc(C(=O)Nc2ccc(C(C)(C)CNC(=O)c3n[nH]c4ccc(F)cc34)cc2)cc1OC
6 | > 6.82 | COc1ccc(C(=O)Nc2ccc(C(C)(C)CNC(=O)c3c[nH]c4cnc(F)cc34)cc2)cc1OC
7 | 6.40 to 6.82 | COc1ccc(C(=O)Nc2ccc(C(C)(C)CNC(=O)c3c[nH]c4c(F)nccc34)cc2)cc1OC

pIC50: −log10 of the molar value.
